Results on 1 molecule are retold here after publication PMC10666356, “circ-hnRNPU inhibits NONO-mediated c-Myc transactivation and mRNA stabilization essential for glycosylation and cancer progression” (Journal of Experimental & Clinical Cancer Research : CR, 2023).

The assay deals with T1, MBP-tagged NONO (non-POU domain containing octamer binding) protein, full-length, recombinant (human, UniProt Q15233 1-471).
T1 construct: also called p54nrb; source: purified recombinant protein
T1 sequence (looked up): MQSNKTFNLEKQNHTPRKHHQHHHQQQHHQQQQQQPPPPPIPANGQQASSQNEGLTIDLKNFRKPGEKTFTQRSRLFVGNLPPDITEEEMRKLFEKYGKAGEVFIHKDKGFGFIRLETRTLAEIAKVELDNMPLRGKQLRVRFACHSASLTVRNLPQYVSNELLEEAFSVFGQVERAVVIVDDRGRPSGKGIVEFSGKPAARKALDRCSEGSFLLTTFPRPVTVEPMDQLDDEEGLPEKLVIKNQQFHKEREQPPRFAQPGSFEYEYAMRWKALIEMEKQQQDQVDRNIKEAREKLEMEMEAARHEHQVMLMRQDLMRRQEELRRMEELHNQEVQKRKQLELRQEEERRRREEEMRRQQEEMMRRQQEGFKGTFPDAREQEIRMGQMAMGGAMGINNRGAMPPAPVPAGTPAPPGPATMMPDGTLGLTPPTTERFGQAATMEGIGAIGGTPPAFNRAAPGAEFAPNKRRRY
Briefly: co-IP; purified recombinant GST-tagged c-Myc and MBP-tagged NONO, full-length or truncations, mixed in vitro; co-IP and western blot with GST-tag or MBP antibodies; also with or without in vitro generated circ-hnRNPU, which attenuated the interaction. The settings on record: both partners purified. For orientation: In western blotting, separated proteins are transferred to a membrane and probed.

B1: GST-tagged c-Myc protein, full-length, recombinant (natural protein, human, UniProt P01106-2 1-454, looked up)
chain: MDFFRVVENQQPPATMPLNVSFTNRNYDLDYDSVQPYFYCDEEENFYQQQQQSELQPPAPSEDIWKKFELLPTPPLSPSRRSGLCSPSYVAVTPFSLRGDNDGGGGSFSTADQLEMVTELLGGDMVNQSFICDPDDETFIKNIIIQDCMWSGFSAAAKLVSEKLASYQAARKDSGSPNPARGHSVCSTSSLYLQDLSAAASECIDPSVVFPYPLNDSSSPKSCASQDSSAFSPSSDSLLSSTESSPQGSPEPLVLHEETPPTTSSDSEEEQEDEEEIDVVSVEKRQAPGKRSESGSPSAGGHSKPPHSPLVLKRCHVSTHQHNYAAPPSTRKDYPAAKRVKLDSVRVLRQISNNRKCTSPRSSDTEENVKRRTHNVLERQRRNELKRSFFALRDQIPELENNEKAPKVVILKKATAYILSVQAEEQKLISEEDLLRKRREQLKHKLEQLRNSCA
notes: c-Myc, human; 1365 bp fits 454 codons and a stop, the 454-residue form; The isoform is inferred from the printed cDNA length only; source: purified recombinant protein
On to B1, for which the binding result is “binds”.
